Experimental data reported in US10781262B2, “Combination therapy of T cell activating bispecific antigen binding molecules and PD-1 axis binding antagonists” (Hoffmann-La Roche Inc., priority 2014, dated 2020).

The chains behind the UniProt entries cited, without tags or fusion partners. A line that says so, or that is headed by a name, gives the form on record, which may keep a tag or linker.
UniProt P15328, with tags, fused parts or gaps: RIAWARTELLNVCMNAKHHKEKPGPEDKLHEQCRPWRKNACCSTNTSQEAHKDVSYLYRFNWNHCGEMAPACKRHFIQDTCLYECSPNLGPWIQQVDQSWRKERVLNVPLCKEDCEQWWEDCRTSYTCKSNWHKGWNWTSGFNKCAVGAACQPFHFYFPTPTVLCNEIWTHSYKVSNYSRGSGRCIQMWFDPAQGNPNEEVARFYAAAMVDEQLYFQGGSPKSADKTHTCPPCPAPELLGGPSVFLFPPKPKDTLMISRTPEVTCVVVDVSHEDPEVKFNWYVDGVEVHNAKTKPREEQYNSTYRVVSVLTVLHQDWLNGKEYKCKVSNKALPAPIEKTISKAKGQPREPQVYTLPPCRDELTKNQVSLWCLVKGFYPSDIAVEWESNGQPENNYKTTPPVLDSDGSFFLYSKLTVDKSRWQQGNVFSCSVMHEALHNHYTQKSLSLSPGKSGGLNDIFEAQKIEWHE

Experiments:
[1] = biological target: T1, human Folate Receptor 1 (FolR1-Fc) (Homo sapiens, UniProt P15328); assay: SPR avidity to Folate Receptor 1 (bivalent binding); conditions: ligand huFolR1, approximated 1:1 Langmuir fit, read-out: Apparent KD
T1 construct: the extracellular domain of the antigen linked to the hinge region of Fc-knob; made in house; host or cells: HEK293 EBNA
Text: The immobilization level was about 300-400 RU. […] The dissociation was monitored for 600 seconds.

[2] = biological target: human Folate Receptor 1 Fc fusion (Homo sapiens, UniProt P15328); conditions: monovalent binding (affinity), analyte huFolR1
Protocol: Binding of FolR1 binders as IgG or in the T-cell bispecific format to different recombinant folate receptors (human FolR1, 2 and 3, murine FolR1 and cynomolgus FolR1; all as Fc fusions) was assessed by surface plasmon resonance (SPR). All SPR experiments were performed on a Biacore T200 at 25° C. with HBS-EP as running buffer (0.01 M HEPES pH 7.4, 0.15 M NaCl, 3 mM EDTA, 0.005% Surfactant P20, Biacore, Freiburg/Germany).
For affinity measurement, direct coupling of around 6000-7000 resonance units (RU) of the anti-human Fab specific antibody (Fab capture kit, GE Healthcare) was performed on a CM5 chip at pH 5.0 using the standard amine coupling kit (GE Healthcare). Anti-FolR1 IgGs or T cell bispecifics were captured at 20 nM with a flow rate of 10 μl/min for 20 or 40 sec, the reference flow cell was left without capture. Dilution series (6.17 to 500 nM or 12.35 to 3000 nM) of human or cyno Folate Receptor 1 Fc fusion were passed on all flow cells at 30 μl/min for 120 or 240 sec to record the association phase. The dissociation phase was monitored for 240 s and triggered by switching from the sample solution to HBS-EP. The chip surface was regenerated after every cycle using a double injection of 60 sec 10 mM Glycine-HCl pH 2.1 or pH 1.5. Bulk refractive index differences were corrected for by subtracting the response obtained on the reference flow cell 1. […]

## Farletuzumab [reference compound]
[1]
  Kd: 0.73 nM
[2]
  Kd: 55.3 nM
